The source of these data is PubChem BioAssay AID624040 (The Scripps Research Institute Molecular Screening Center, 2012).

Amino acid sequences for entries named in this document (tags omitted).
UniProt P08912, whole entry, looked up: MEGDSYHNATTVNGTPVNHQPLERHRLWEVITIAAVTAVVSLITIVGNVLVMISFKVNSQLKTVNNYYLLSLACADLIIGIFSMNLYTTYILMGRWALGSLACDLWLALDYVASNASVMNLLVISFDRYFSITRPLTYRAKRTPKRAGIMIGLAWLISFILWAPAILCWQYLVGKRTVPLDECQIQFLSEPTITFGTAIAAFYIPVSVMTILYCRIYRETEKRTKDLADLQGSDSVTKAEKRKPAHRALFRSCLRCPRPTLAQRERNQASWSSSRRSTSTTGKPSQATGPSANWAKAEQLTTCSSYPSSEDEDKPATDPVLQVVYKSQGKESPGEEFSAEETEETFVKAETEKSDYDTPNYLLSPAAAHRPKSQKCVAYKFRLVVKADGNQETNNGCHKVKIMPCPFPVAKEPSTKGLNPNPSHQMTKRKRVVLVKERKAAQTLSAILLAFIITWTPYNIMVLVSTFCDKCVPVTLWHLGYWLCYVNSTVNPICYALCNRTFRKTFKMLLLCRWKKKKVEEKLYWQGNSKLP

This is a selection; strong and weak results do not stand in their true shares. Active and inactive are the calls of the source.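 How the source made its calls: active means inhibition above a per-plate cutoff, the mean of that plate's test compounds plus 3 SD (cut at about 27% in these data); inactive means the rest.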

Usually inhibition stands for the drop in the measured response relative to a control, in per cent.

For the assay, the target named is Muscarinic acetylcholine receptor M5 (Homo sapiens) (UniProt P08912). In words: CHRM5 blockers of acetylcholine calcium response – CHO cells, Fluo-8 calcium fluorescence, primary screen (AID 624040).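 Further: 0% = acetylcholine EC80 with DMSO and 100% = DMSO without agonist.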 Particulars: CHO-hM5 cells, ACh EC80, at 3 µM, active compounds read high.
Consider `COc1ccccc1OP(=O)(Nc1ccc(C)cn1)Oc1ccccc1OC`, for which the inhibition is inactive: -4.84%.

As to `Cc1ccc(OP(=O)(Nc2nccs2)Oc2ccc(C)cc2)cc1`, the inhibition was inactive: 1.61%.

In the case of `Oc1ccccc1CNc1ccccn1`, the inhibition was inactive: -2.07%.

Consider `O=C(NC(Sc1ccncn1)C(Cl)(Cl)Cl)c1ccccc1` (configuration not stated), for which the inhibition was inactive: -6.89%.

Consider `CC(C)CC(=O)NC(Sc1ccc(Cl)cc1)C(Cl)(Cl)Cl` (configuration not stated), for which the inhibition was inactive: 0.07%.

For the compound `Nc1cc(N)c2nonc2c1[N+](=O)[O-]`, the inhibition was inactive: 12.5%.

On to `O=[N+]([O-])C1C(O)C(O)C([N+](=O)[O-])C(O)C1O` (configuration not stated), for which the inhibition is inactive: 0.8%.

Turning to `O=P1(Nc2nc3ccc(Cl)cc3s2)COc2ccccc2O1` (configuration not stated), the inhibition was inactive: 1.06%.

For the compound `CCOc1ccc(C2=NCC(CBr)S2)cc1` (configuration not stated), the inhibition is inactive: -3.35%.

As for `CC(C)(C)C(=O)NC(Sc1ccccc1)C(Cl)(Cl)Cl` (configuration not stated), the inhibition was inactive: -5.12%.

`CCc1cc(O)c([N+](=O)[O-])c(C)c1[N+](=O)[O-]`: the inhibition is inactive: -1.56%.

As for `CCN(CC)CCOC(=O)C(O)(c1ccccc1)c1ccccc1`, the inhibition is active: 98.5%.

Turning to `Cc1ccccc1CN(C)C(=O)COC(=O)C(O)(c1ccccc1)c1ccccc1`, the inhibition was inactive: 0.96%.

In the case of `C[C@@H]1C=CCP(=O)(Oc2ccccc2)O1` (some centres not stated), the inhibition is inactive: 13%.

For `C[C@H]1OP(=O)(Oc2ccccc2)C[C@@H]2O[C@@H]21` (some centres not stated), the inhibition was inactive: 0.94%.

On to `N#C/C(=C\c1ccc(N(CCBr)CCBr)cc1)C(N)=O`, for which the inhibition is inactive: 18.3%.

For the compound `CC(=O)c1ccc(N2CC2c2ccncc2)cc1` (configuration not stated), the inhibition is inactive: 3.29%.

For the compound `CC1C(=O)OC2CCN3CC=C(COC(=O)C(C)(O)C1(C)O)C23` (configuration not stated), the inhibition is inactive: 5.91%.

Turning to `COC(=O)C1(C)COP(=O)(NCc2ccccc2)OC1` (configuration not stated), the inhibition was inactive: 7.13%.

Consider `CC(=O)Nc1ccc([As](=O)(O)O)c(O)c1`, for which the inhibition was inactive: 8.27%.

Take `CC(=O)Nc1ccc(Oc2c([N+](=O)[O-])cc([N+](=O)[O-])cc2[N+](=O)[O-])cc1`: the inhibition is inactive: 1.14%.

On to `c1ccc(-c2nn[nH]n2)c(-c2nn[nH]n2)c1`, for which the inhibition is inactive: -4.73%.

Regarding `Cc1ccc(NP(=O)(Oc2cccc(C)c2)Oc2cccc(C)c2)nc1`, the inhibition was inactive: -3.28%.

As to `C=C1C(=O)OC2CCN3CC=C(COC(=O)C(C)(O)C4(CO4)C1C)C23` (configuration not stated), the inhibition is inactive: 2%.

In the case of `O=C(NC1CCS(=O)(=O)C1)NP(=S)(Oc1ccccc1)Oc1ccccc1` (configuration not stated), the inhibition was inactive: -0.85%.

Consider `CCNC(=S)/N=C(\N)N[N+](=O)[O-]`, for which the inhibition is inactive: 6%.

On to `CC1C(=O)OC2CCN3CC4OC4(COC(=O)C(C)(O)C1(C)O)C23` (configuration not stated), for which the inhibition is inactive: 5.02%.

As for `O=P1(N(CCCl)CCCl)OCCC2CCCCN21` (configuration not stated), the inhibition is inactive: 11.7%.

As to `Clc1ccc(N2CCN(Cc3c[nH]c4ncccc34)CC2)cc1`, the inhibition is inactive: -8.15%.

As to `CCC(=O)N1C2C3N(C(=O)CC)C1C1N(C(=O)CC)C(C(N1C(=O)CC)N3C(=O)CC)N2C(=O)CC`, the inhibition is inactive: 5.67%.

Turning to `COC(=O)c1cc2c(s1)N=C(c1ccccc1)N(C)P2(=O)N1CCOCC1` (configuration not stated), the inhibition is inactive: -3.34%.

Turning to `Cc1ccc(OP(=O)(Nc2ccccn2)Oc2ccc(C)cc2)cc1`, the inhibition was inactive: 8%.

With `CC(=O)NC(SC(=S)N(CC(C)C)CC(C)C)C(Cl)(Cl)Cl` (configuration not stated), the inhibition is inactive: -5.65%.

As for `Cc1ccccc1OP(=O)(Nc1ccccn1)Oc1ccccc1C`, the inhibition was inactive: 6.29%.

Take `CC(NC(=O)COC(=O)C(O)(c1ccccc1)c1ccccc1)c1ccccc1` (configuration not stated): the inhibition was inactive: 7.23%.

As to `CN(C)C(=O)Oc1noc2ccccc12`, the inhibition is inactive: 7.93%.

In the case of `O=c1c2cc([N+](=O)[O-])ccc2[nH]c2c([N+](=O)[O-])cc([N+](=O)[O-])cc12`, the inhibition is inactive: 7.83%.

`CCN(C(=O)COC(=O)C(O)(c1ccccc1)c1ccccc1)c1c(N)n(Cc2ccccc2)c(=O)[nH]c1=O`: the inhibition was inactive: 3.24%.

Take `O=P(Nc1ccccn1)(c1ccc(Br)cc1)c1ccc(Br)cc1`: the inhibition is inactive: -3.42%.

`Nc1ccc(CCCCOc2ccccc2)cc1`: the inhibition was inactive: 1.54%.

Regarding `COc1ccc(N)c([N+](=O)[O-])c1[N+](=O)[O-]`, the inhibition was inactive: 7.55%.

With `O=P(Nc1nc2ccccc2s1)(c1ccccc1)c1ccccc1`, the inhibition was inactive: 12.2%.

Consider `C[C@H]1OP(=O)(Oc2ccccc2)[C@H](O)[C@H](O)[C@H]1N=[N+]=[N-]` (some centres not stated), for which the inhibition was inactive: 5.56%.

For `O=[As](O)(c1ccccc1)c1ccc(O)cc1`, the inhibition was inactive: 13%.

Take `O=[N+]([O-])c1ncn(CCn2cnc([N+](=O)[O-])n2)n1`: the inhibition was inactive: -10.5%.

As for `CC(=O)NC(SC(=S)N(C)C)C(Cl)(Cl)Cl` (configuration not stated), the inhibition is inactive: 0.22%.

For `O=[N+]([O-])c1ccc(O)c(/C=N/Nc2ccc([N+](=O)[O-])cc2[N+](=O)[O-])c1`, the inhibition is inactive: -2.72%.

`Nc1ccc([As](=O)(O)c2ccc([N+](=O)[O-])cc2)cc1`: the inhibition is inactive: 14%.

In the case of `C(Cc1nn[nH]n1)Cc1nn[nH]n1`, the inhibition was inactive: -3.31%.

Turning to `O=P(Nc1nccs1)(c1ccccc1)c1ccccc1`, the inhibition was inactive: -3.94%.

Turning to `CC(C)C(=O)NC(Sc1ccccc1)C(Cl)(Cl)Cl` (configuration not stated), the inhibition was inactive: -11.7%.

Take `c1nnnn1CCn1cnnn1`: the inhibition is inactive: -0.65%.
